## Measured affinities in a library of Ab-14 heavy chain variants

Reference: Li et al. 2023, doi:10.1038/s41467-023-39022-2. File: FLAb, binding data.

All variants were tested on one target, the spike HR2 peptide PDVDLGDISGINAS (SARS-CoV-2).

Each scFv is VH, a (GGGGS)3 linker, VL, as in the parent Ab-14, and differs from it in the CDRs of the heavy chain only.
VH: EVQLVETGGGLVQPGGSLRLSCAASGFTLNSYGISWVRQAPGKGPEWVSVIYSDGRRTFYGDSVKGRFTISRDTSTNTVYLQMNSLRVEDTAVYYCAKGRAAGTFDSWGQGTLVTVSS
VL: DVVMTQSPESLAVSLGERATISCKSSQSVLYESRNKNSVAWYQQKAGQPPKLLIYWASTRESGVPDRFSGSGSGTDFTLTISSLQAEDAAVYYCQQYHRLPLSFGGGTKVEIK

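This is the validation round: designs drawn from the data on random variants, tested in the same kind of assay. Several design methods are mixed in this list. In AlphaSeq, yeast of one mating type display the scFv and yeast of the other type display the target. After mating in shaken culture at 30 °C for 16 h, diploids were selected and their barcode pairs sequenced. The ratio of observed to expected reads was calibrated, replicate by replicate, on BCL2-family standards whose Kd was known from biolayer interferometry. The assay was run in six technical replicates.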

Variants are written as CDR1, CDR2 and CDR3 of the heavy chain (limits as in the source). Parent: GFTLNSYGIS, VIYSDGRRTFYGDSVK, GRAAGTFDS. Variants here have more than six changes. The Kd shown is the geometric mean over detected replicates; a lower Kd is a better binder. "no signal" means that the variant was in the library but no mating with the target was seen in any replicate; the authors take this as a sign of poor binding, and no number exists. The authors' rule: three or more of the six replicates give a measured affinity, fewer mean a poor binder. A sequence measured in both rounds can read differently, since the two assays cover different ranges. Empty control strains, which show no peptide, gave a signal in 1% of pairings with all heavy chain designs; the median was 120 nM and 95% of these signals were weaker than 7.0 nM. No background was subtracted.

For GFNLEDYGIS, VIYADGRRTFYADSVK, GKVAGTFDS, the assay gave 220 pM (6 of 6 replicates).
For GFDIDEYGIS, VIYADGTRTAVDNSFK, GQMAGFFTN, the assay gave 81 nM (1 of 6 replicates).
For GFDLSEYGIS, VIYADGRRTAYADSVK, GNVAGTFDV, the assay gave 360 pM (6 of 6 replicates).
For GQGLNEYGIS, VIYADGMRTYYAPNVK, GQVLGVMDI, the assay gave no signal (0 of 6 replicates).
For GFNLDEYGIS, VIYADGRRTAYADSVK, GEVAGTFDI, the assay gave 400 pM (6 of 6 replicates).
For GFDLNEYGIS, VIYADGMRTAYSDSVK, GETAGTFDT, the assay gave 460 pM (6 of 6 replicates).
For GFDLNEYGIS, VIYADGSRTAYANSVK, GNVAGTFDV, the assay gave 260 pM (6 of 6 replicates).
For GFDLNEYGIS, VIYADGKRTFYSDSVK, GNTAGTFDV, the assay gave 1.2 nM (6 of 6 replicates).
For GFDLNEYGIS, VIYADGRRTFYADSVK, GKNAGTFNM, the assay gave 360 pM (6 of 6 replicates).
For GYSLEDYGIS, VIYADGRRTAYAADVK, GQGTNVVAG, the assay gave no signal (0 of 6 replicates).
For GFDLNEYGIS, VIYADGRRTFYADSVK, GTVAGTFDQ, the assay gave 310 pM (6 of 6 replicates).
For GFDLGEYGVS, VIYADGHRAAYTDNVK, GAESGSVQT, the assay gave no signal (0 of 6 replicates).
For GFDLGEYGVS, VIYADGLRAQYASKVK, GNFSGNFDK, the assay gave no signal (0 of 6 replicates).
For GEDLDEYGIS, VIYADGMRQYYANNVK, GDINDVDDL, the assay gave no signal (0 of 6 replicates).
For GKQLEEMGIS, VIYADGVRTAYSSKVK, GINGDFFDV, the assay gave 47 nM (1 of 6 replicates).
For GGDLEKYGIS, VIYADGKRSEYSNAVK, GQQAGTLLT, the assay gave no signal (0 of 6 replicates).
For GFDLNEYGIS, VIYADGKRTAYIDSVK, GNQAGTFDQ, the assay gave 800 pM (6 of 6 replicates).
For GFDLNEYGIS, VIYADGKRTFYADSVK, GQAAGTFDI, the assay gave 860 pM (6 of 6 replicates).
For GFDLNEYGIS, VIYADGQRTVYADSVK, GTNAGTFDV, the assay gave 190 pM (6 of 6 replicates).
For GFNLDEYGIS, VIYADGVRKAYSSKVK, GVVWWFNLQ, the assay gave no signal (0 of 6 replicates).
For GFDLDEYGIS, VIYADGRRTFYIDSVK, GEVAGTFDS, the assay gave 1.6 nM (6 of 6 replicates).
For GFDIEDYGIS, VIYADGKRSAYSNSVK, GLMAGTMGY, the assay gave 33 nM (2 of 6 replicates).
For GFDLNEYGIS, VIYADGSRASYADKVK, GLNGGQLIV, the assay gave no signal (0 of 6 replicates).
For GFDLNEYGIS, VIYADGKRTAYADDVK, GETAGTFDQ, the assay gave 340 pM (6 of 6 replicates).
For GFDLDEYGIS, VIYADGKRTAYADSVK, GEVAGTFDA, the assay gave 1.1 nM (6 of 6 replicates).
For GFDLNEYGIS, VIYADGQRTAYADSVK, GQVAGTFDV, the assay gave 4.9 nM (6 of 6 replicates).
For GFDLNEYGIS, VIYADGMRTFYSDSVK, GNVAGTFDS, the assay gave 700 pM (6 of 6 replicates).
For GFGLDEYGIS, VIYADGRRTFYSDSVK, GSTAGTFDV, the assay gave 240 pM (6 of 6 replicates).
For GFDLNEYGIS, VIYADGMRTAYAESVK, GENAGTFDV, the assay gave 330 pM (6 of 6 replicates).
For GFDLNEYGIS, VIYADGLRTAYADSVK, GENAGTFDL, the assay gave 170 pM (6 of 6 replicates).
For GEDLGEYGIS, VIYADGVRASYIDSVK, GESTGFLDV, the assay gave no signal (0 of 6 replicates).
For GFDLNEYGIS, VIYADGQRTFYADSVK, GQVAGTFDV, the assay gave 170 pM (6 of 6 replicates).
For GKTLDEYGIS, VIYADGMRTQYIDQVK, GDIVNTNMT, the assay gave 33 nM (6 of 6 replicates).
For GFDLSEYGIS, VIYADGRRTAYTDSVK, GEVAGTFDV, the assay gave 270 pM (6 of 6 replicates).
For GFNLNEYGIS, VIYADGRRTAYSNSVK, GEAAGTFDV, the assay gave 1.5 nM (6 of 6 replicates).
For GQALNSYGIS, VIYSDGERLFYLDAVK, ARAAGTFDS, the assay gave no signal (0 of 6 replicates).
For GFDLNEYGIS, VIYADGTRTAYADSVK, GEVAGTFDV, the assay gave 1.0 nM (6 of 6 replicates).
For GFDLNEYGIS, VIYADGRRTYYADSVK, GENAGTFDI, the assay gave 800 pM (6 of 6 replicates).
For GFNLDEYGIS, VIYADGKRTFYQDSVK, GEVAGTFDV, the assay gave 650 pM (5 of 6 replicates).
For GFDLNEYGIS, VIYADGRRTFYIDSVK, GNNAGTFDV, the assay gave 260 pM (6 of 6 replicates).
For GFGLGEYGIS, VIYADGTRAAYVTSVK, GSIAGTFFT, the assay gave no signal (0 of 6 replicates).

The first 5 entries again:

{"CDR-H1": "GFNLEDYGIS", "CDR-H2": "VIYADGRRTFYADSVK", "CDR-H3": "GKVAGTFDS", "Kd (apparent)": "220 pM", "detected": "6 of 6"}
{"CDR-H1": "GFDIDEYGIS", "CDR-H2": "VIYADGTRTAVDNSFK", "CDR-H3": "GQMAGFFTN", "Kd (apparent)": "81 nM", "detected": "1 of 6"}
{"CDR-H1": "GFDLSEYGIS", "CDR-H2": "VIYADGRRTAYADSVK", "CDR-H3": "GNVAGTFDV", "Kd (apparent)": "360 pM", "detected": "6 of 6"}
{"CDR-H1": "GQGLNEYGIS", "CDR-H2": "VIYADGMRTYYAPNVK", "CDR-H3": "GQVLGVMDI", "Kd (apparent)": "no signal", "detected": "0 of 6"}
{"CDR-H1": "GFNLDEYGIS", "CDR-H2": "VIYADGRRTAYADSVK", "CDR-H3": "GEVAGTFDI", "Kd (apparent)": "400 pM", "detected": "6 of 6"}